# From patent publication US11096930B2, “Substituted imidazopyridine compounds as inhibitors of indoleamine 2,3-dioxygenase and/or tryptophan-2,3-dioxygenase” (IOMet Pharma Ltd., priority 2016, dated 2021)
# By UniProt entry, the sequences of proteins in these tests, tags left out. Where a name states a change or a piece, a line headed by the entry shows the natural chain unless it says otherwise.
# UniProt P48775: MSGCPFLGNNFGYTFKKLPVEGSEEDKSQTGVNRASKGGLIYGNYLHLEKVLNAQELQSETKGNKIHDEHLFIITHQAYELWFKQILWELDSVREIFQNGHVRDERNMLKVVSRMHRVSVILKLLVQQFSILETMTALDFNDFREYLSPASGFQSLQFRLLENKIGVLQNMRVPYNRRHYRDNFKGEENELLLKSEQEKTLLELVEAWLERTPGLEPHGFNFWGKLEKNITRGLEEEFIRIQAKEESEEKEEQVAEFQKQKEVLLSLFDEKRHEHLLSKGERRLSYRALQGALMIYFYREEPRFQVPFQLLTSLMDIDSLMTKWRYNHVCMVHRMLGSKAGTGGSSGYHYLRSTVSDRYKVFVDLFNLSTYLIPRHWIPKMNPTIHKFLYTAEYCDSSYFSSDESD
# Experiments:
# TDO [1] = molecular target: T1, TDO (Homo sapiens (Human), UniProt P48775); test: A172 (TDO) cell based assay for detection of kynurenine; conditions: pIC50 A172 (TDO) cell based assay
# Description: (§1) Exemplary compounds disclosed herein were prepared, and tested to determine their effect as IDO and/or TDO inhibitors. Two different assays were employed: 1. a cell-based assay for detecting the effect of test compounds on kynurenine production in two different cancer cell types. This assay utilized cancer cells which expressed either TDO or IDO and as such was used as a means of testing compound activity at these two enzymes in a cell-based context. 2. a TDO and IDO biochemical coupled assay which utilized recombinantly produced and purified TDO and IDO enzymes in combination with the enzyme formamidase. This coupled enzyme system allowed conversion of N-formylkynurenine produced by TDO or IDO activity to kynurenine which was then quantified by fluorescence following addition of Erhlich's Reagent. The protocols for these are set out below.
# A172 and SKOV3 Cell Based Assays for Detection of Kynurenine Produced by TDO and/or IDO
# A172 (human glioblastoma) and SKOV3 (human ovarian adenocarcinoma) cells were seeded in a 96 well plate at 30,000 or 40,000 cells per well respectively in phenol red-free RPMI supplemented with 10% FCS, 2 mM L-glutamine and 500 μM L-tryptophan. IDO expression was induced in the SKOV3 cells by the addition of 500 ng/ml IFN-γ. Cells were incubated at 37° C. with or without the addition of test compound. […]
# TDO [2] = molecular target: T1, TDO; test: hTDO biochemical coupled assay; conditions: 330 μM L-tryptophan
# Description: as §1
# TDO and IDO Biochemical Coupled Assay
# Recombinant human IDO or TDO was incubated in 50 mM KPO4 (pH 7.0), 0.5 mM EGTA, 0.5 mM EDTA, 0.05% Triton™ X100, 20 mM ascorbate, 10 μM methylene blue, 500 U/ml catalase, 50 μg/ml KynB (kynurenine formamidase). […] After incubation for 17 minutes at room temperature the reactions were stopped by the addition of Erhlich's reagent and incubated at room temperature for 5 minutes before the fluorescence was read.
smiles,measurement,setting,value
"CC1(C)CN(c2cc(C(F)(F)F)cc3cncn23)CCC12NC(=O)NC2=O (centres unmarked) [Example 5, 6,6-Dimethyl-8-(7-(trifluoromethyl)imidazo[1,5-a]pyridin-5-yl)-1,3,8-triazaspiro[4.5]decane-2,4-dione]",IC50,TDO [1],> 10 µM
same,pIC50 hTDO biochemical coupled assay,TDO [2],5.52
